# According to PubChem BioAssay AID493008 (The Scripps Research Institute Molecular Screening Center, 2010):
# Only a part is listed here, and it is no random draw. Some salts or complexes appear as unconnected parts, following the source record. Active and inactive are the calls of the source.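 Rule for the calls: active = activation above the mean over all tested compounds plus 3 SD (cut at about 30% in these data); inactive = the rest.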
# Target: Troponin I, cardiac muscle (Homo sapiens) + Troponin T, cardiac muscle (Homo sapiens) + Troponin C, slow skeletal and cardiac muscles (Homo sapiens) (UniProt P19429+P45379+P63316)
# Test: calcium sensitizers of cardiac thin filaments – biochemical, IANBD-TnC fluorescence, EC20 calcium, primary screen (AID 493008);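 note: rise in fluorescence read as greater calcium sensitivity of cardiac thin filaments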
# Conditions: IANBD-labeled TnC RTF fluorescence at EC20 calcium; at 7.2 µM; hits give high values; 0% EC20 calcium, 100% full calcium
row,Structure (SMILES),activation
1,Cc1c(NP(C)(=O)Oc2ccc(C(C)C)cc2)c(=O)n(-c2ccccc2)n1C (stereo not given),inactive: 5.63%
2,O=[N+]([O-])c1cc([N+](=O)[O-])c(Nc2ccccn2)c([N+](=O)[O-])c1,inactive: -1.32%
3,CCc1ccc(OP(C)(=O)O)cc1,inactive: -2.73%
4,COc1ccccc1OP(C)(=O)Nc1ccc(C)cc1C (stereo not given),inactive: 6.12%
5,CP(=O)(Nc1ccccn1)Oc1ccccc1 (stereo not given),inactive: -2.48%
6,COc1ccccc1OP(C)(=O)Nc1ccc(Br)cc1 (stereo not given),inactive: 0.74%
7,CN(C)CCOC(=O)C(O)(c1ccccc1)C1CCCC1 (stereo not given),inactive: 5.15%
8,COc1ccc(OP(C)(=O)Nc2ccccn2)cc1 (stereo not given),inactive: 5.56%
9,CCCCCCCCCCCCCCCC1C[N+](C)(C)CCOP(C)(=O)O1 (stereo not given),inactive: -13.4%
10,CP(=O)(Nc1ccc(Cl)cc1Cl)Oc1ccccc1 (stereo not given),inactive: 0.16%
11,CP(=O)(OCCOc1ccccc1)OCCOc1ccccc1,inactive: 0.67%
12,Cc1cc(C)cc(OP(C)(=O)Nc2cccc(C(F)(F)F)c2)c1 (stereo not given),inactive: -2.49%
13,O=C1C(O)=C([N+](=O)[O-])C(=O)C(O)=C1[N+](=O)[O-],inactive: -1.94%
14,COc1ccc(OP(C)(=O)Nc2ccccc2Br)cc1 (stereo not given),inactive: -2.72%
15,COc1ccccc1OP(C)(=O)Nc1ccc(C)c(C)c1 (stereo not given),inactive: -4.7%
16,CP(=O)(OC12CC3CC(CC(C3)C1)C2)OC12CC3CC(CC(C3)C1)C2,inactive: -2.35%
17,CCOC(=O)c1ccc(NP(C)(=O)Oc2ccc(Cl)cc2)cc1 (stereo not given),inactive: -6.11%
18,CP(=O)(Nc1ccc(Cl)cc1)Oc1ccc(F)cc1 (stereo not given),inactive: 6.65%
19,COc1ccccc1OP(C)(=O)Nc1ccccc1Br (stereo not given),inactive: 5.66%
20,CC(C)(C)c1ccc(OP(C)(=O)O)cc1,inactive: 0.49%

row,Structure (SMILES),activation
1,CN(C)C(=O)c1c([N+](=O)[O-])cc([N+](=O)[O-])cc1[N+](=O)[O-],inactive: 17.2%
2,COc1ccc(OP(C)(=O)Nc2ccc(Br)cc2)cc1 (stereo not given),inactive: 2.33%
3,CCN(CC)CC(O)COC(=O)C(O)(c1ccccc1)C1CCCCC1 (stereo not given),inactive: -7.83%
4,CCc1ccc(OP(C)(=O)Nc2cccnc2)cc1 (stereo not given),inactive: 8.52%
5,CP(=O)(Oc1ccccc1)N1CCOC1=O (stereo not given),inactive: 0.84%
6,O=C(OCCCN1CCCC1)C(O)(c1ccccc1)C1CCCCC1 (stereo not given),inactive: -4.88%
7,COc1ccccc1OP(C)(=O)Nc1c(C)n(C)n(-c2ccccc2)c1=O (stereo not given),inactive: 1.66%
8,CP(=O)(Nc1ccc2c(c1)OCCO2)Oc1ccccc1 (stereo not given),inactive: 2.34%
9,Cc1ccccc1NP(C)(=O)Nc1ccccc1C,inactive: -0.75%
10,CP(=O)(Nc1ccc(SC(F)(F)F)cc1)Oc1ccc(F)cc1 (stereo not given),inactive: 5.6%
11,CCOP(C)(=S)SCC(=O)NC(C)(CC)C(=O)O (stereo not given),inactive: -0.94%
12,O=[N+]([O-])c1cc([N+](=O)[O-])c(NCC2CCS(=O)(=O)C2)c([N+](=O)[O-])c1 (stereo not given),inactive: 7.27%
13,Cc1cc(-c2cccc3ccccc23)c(C)cn1.O=[N+]([O-])c1cc([N+](=O)[O-])c(O)c([N+](=O)[O-])c1,inactive: 1.68%
14,O=[N+]([O-])c1ccc(OP2(=O)COCCO2)cc1 (stereo not given),inactive: 1.12%
15,Cc1c(C(c2ccc3c(c2)OCO3)c2c(C)n(C)n(-c3ccccc3)c2=O)c(=O)n(-c2ccccc2)n1C.O=[N+]([O-])c1cc([N+](=O)[O-])c(O)c([N+](=O)[O-])c1,inactive: 2.29%
16,COc1ccc(OP(C)(=O)Nc2cccc(Br)c2)cc1 (stereo not given),inactive: 7.07%
17,COc1ccc(NP(C)(=O)Oc2ccccc2OC)cc1 (stereo not given),inactive: -5.17%
18,CN(C)CCOC(=O)C(O)(c1ccccc1)C1CCCCC1 (stereo not given),inactive: -1.56%
19,CCN(CC)CCCOC(=O)C(O)(c1ccccc1)C1CCCCC1 (stereo not given),inactive: -2.83%
20,Cc1c([N+](=O)[O-])cc([N+](=O)[O-])c(Br)c1[N+](=O)[O-],inactive: -4.63%

row,Structure (SMILES),activation
1,CCCCCOc1ccc(NP(C)(=O)Oc2ccc(Cl)cc2Cl)cc1 (stereo not given),inactive: -0.68%
2,O=[N+]([O-])c1cc([N+](=O)[O-])c(OC2CCCCC2O)c([N+](=O)[O-])c1 (stereo not given),inactive: 5.42%
3,CP(=O)(Nc1ccccc1)Oc1ccc(F)cc1 (stereo not given),inactive: 8.39%
4,COc1ccc(OP(C)(=O)Nc2ccc(SC(F)(F)F)cc2)cc1 (stereo not given),inactive: -2.25%
5,CCOC(=O)c1ccc(NP(C)(=O)Oc2ccc(F)cc2)cc1 (stereo not given),inactive: 9.28%
6,O=C(OCCN1CCN(CCOCc2ccccc2)CC1)C(O)(c1ccccc1)c1ccccc1,inactive: 4.8%
7,O=C(OC1CN2CCC1CC2)c1ccc([N+](=O)[O-])cc1 (stereo not given),inactive: 10.9%
8,COc1ccc2c(c1O)-c1c(O)c(OC)cc3c1[C@H](C2)[N+](C)(C)CC3.O=[N+]([O-])c1cc([N+](=O)[O-])c([O-])c([N+](=O)[O-])c1[O-],inactive: 6.46%
9,CC(C)c1ccc(OP(C)(=O)Nc2ccc(SC(F)(F)F)cc2)cc1 (stereo not given),inactive: 1.81%
10,CP(=O)(Nc1ccccc1F)Oc1ccccc1 (stereo not given),inactive: 9.79%
11,Cc1cc(C)cc(OP(C)(=O)Nc2ccccn2)c1 (stereo not given),inactive: -1.43%
12,CP(=O)(Nc1cccc(Br)c1)Oc1ccccc1 (stereo not given),inactive: -4.2%
13,Cc1ccc(C)c(NP(C)(=O)Oc2ccccc2)c1 (stereo not given),inactive: -5.53%
14,COc1ccccc1OP(C)(=O)Nc1cccc(Br)c1 (stereo not given),inactive: -4.8%
15,Cc1cc(C)cc(OP(C)(=O)Nc2ccc(C)cc2C)c1 (stereo not given),inactive: -2.82%
16,CCOC(=O)c1ccc(NP(C)(=O)Oc2cc(C)cc(C)c2)cc1 (stereo not given),inactive: -7.94%
17,CC1=NCCc2c1[nH]c1ccccc21.O=[N+]([O-])c1cc([N+](=O)[O-])c(O)c([N+](=O)[O-])c1,inactive: -1.46%
18,O=C(O)c1cccc(Nc2c([N+](=O)[O-])cc([N+](=O)[O-])cc2[N+](=O)[O-])c1,inactive: 0.82%
19,COc1ccccc1OP(C)(=O)Nc1c(C)cccc1C (stereo not given),inactive: 5.08%
20,CN1CCCCC1COC(=O)C1(O)c2ccccc2CCc2ccccc21 (stereo not given),inactive: 4.12%
